{
  "sequences": {"note": "Protein sequences, listed by entry. Tags and fused reporters are not part of them.", "UniProt P63165, whole entry": "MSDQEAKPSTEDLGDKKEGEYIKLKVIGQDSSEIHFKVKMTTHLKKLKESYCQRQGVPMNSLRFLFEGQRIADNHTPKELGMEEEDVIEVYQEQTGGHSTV"},
  "source": "PubChem BioAssay AID602429",
  "about": "(Sanford-Burnham Center for Chemical Genomics, 2012)",
  "note": "Only a part is listed here, and it is no random draw. Some results for these compounds are left out of this collection, so the calls shown say nothing about other tests. The source made the active and inactive calls. Rule as the data show it: active = inhibition above about 37%; inactive = the rest.",
  "data": [
    {"target": "Small ubiquitin-related modifier 1 (Homo sapiens) (UniProt P63165)", "assay": "SUMO1 binding to interaction partners, disruption – biochemical, uHTS, primary screen (AID 602429)", "conditions": "SUMO1 binding to a labelled peptide, TR-FRET, 1 h; at 20 µM; stronger effect = higher value", "values": [
      {"compound": "CC(C)Oc1ccc(C(=O)NCC2(N(C)C)CCCCC2)cc1", "inhibition": "inactive: -0.348%"},
      {"compound": "O=C(OCCN1CCCC1)C(O)(c1ccccc1)c1ccccc1", "inhibition": "inactive: -6.01%"},
      {"compound": "CN(C)c1cccc(C(=O)NCC2(N(C)C)CCCCC2)c1", "inhibition": "inactive: 0.162%"},
      {"compound": "C=C(C)C#CC(O)(C(=O)OC1CCN(C)CC1)c1ccccc1", "note": "(stereo unspecified)", "inhibition": "inactive: -1.19%"},
      {"compound": "COc1ccc(Br)c(C(=O)NCC2(N3CCCCC3)CCCCC2)c1", "inhibition": "inactive: -2.55%"},
      {"compound": "O=C(OC1CN2CCC1CC2)C(CO)(c1ccccc1)c1ccccc1", "note": "(stereo unspecified)", "inhibition": "inactive: -1.24%"},
      {"compound": "O=C(NCC1(N2CCCCC2)CCCCC1)c1cccc(Cl)c1", "inhibition": "inactive: 2.76%"},
      {"compound": "COc1cccc(C(=O)NCC2(N3CCCCC3)CCCCC2)c1", "inhibition": "inactive: -1.89%"},
      {"compound": "COc1ccc(Cl)cc1C(=O)NCC1(N(C)C)CCCCC1", "inhibition": "inactive: -6.73%"},
      {"compound": "COc1cc(C(=O)NCC2(N(C)C)CCCCC2)c([N+](=O)[O-])cc1OC", "inhibition": "inactive: -12.5%"},
      {"compound": "CN(C)C1(CNC(=O)c2ccc(Br)cc2)CCCCC1", "inhibition": "inactive: 0.159%"},
      {"compound": "COc1ccc(C(=O)NCC2(N(C)C)CCCCC2)cc1", "inhibition": "inactive: 2.28%"},
      {"compound": "CCN1CCCC(OC(=O)C2(O)c3ccccc3C=Cc3ccccc32)C1", "note": "(stereo unspecified)", "inhibition": "inactive: -2.07%"},
      {"compound": "Cc1cc(C(=O)NCC2(N3CCCCC3)CCCCC2)ccc1[N+](=O)[O-]", "inhibition": "inactive: -22.1%"},
      {"compound": "O=C(NCC1(N2CCCCC2)CCCCC1)c1cccc(Br)c1", "inhibition": "inactive: 5.94%"},
      {"compound": "C=CCN1CCN(CCOC(=O)C(O)(c2ccccc2)c2ccccc2)CC1", "inhibition": "inactive: -0.493%"},
      {"compound": "O=C(NCC1(N2CCCCC2)CCCCC1)c1cc(F)c(F)cc1Cl", "inhibition": "inactive: -3.37%"},
      {"compound": "Cc1ccccc1C(=O)NCC1(N2CCCCC2)CCCCC1", "inhibition": "inactive: -2.06%"},
      {"compound": "CN(C)c1ccc(C(=O)NCC2(N(C)C)CCCCC2)cc1", "inhibition": "inactive: 2%"},
      {"compound": "CN(C)C1CCCC1OC(=O)C(O)(c1ccccc1)c1ccccc1", "note": "(stereo unspecified)", "inhibition": "inactive: -1.3%"},
      {"compound": "Cc1ccc(C(=O)NCC2(N3CCCCC3)CCCCC2)cc1", "inhibition": "inactive: 7.56%"},
      {"compound": "CCN(CC)CC(C)C(C)OC(=O)C(O)(c1ccccc1)c1ccccc1", "note": "(stereo unspecified)", "inhibition": "inactive: 4.13%"},
      {"compound": "COc1cc(SC)ccc1C(=O)NCC1(N(C)C)CCCCC1", "inhibition": "inactive: -0.0885%"},
      {"compound": "CC(C)N1C(=O)CC2(CCN(CCOC(=O)C(O)(c3ccccc3)c3ccccc3)CC2)C1=O", "inhibition": "inactive: 2.43%"},
      {"compound": "CN1[C@@H]2CC[C@H]1CC(OC(=O)C(O)(c1ccccc1)c1ccccc1)C2", "note": "(stereo partly specified)", "inhibition": "inactive: -0.858%"},
      {"compound": "O=C(NCC1(N2CCCCC2)CCCCC1)c1cc([N+](=O)[O-])ccc1Cl", "inhibition": "inactive: -20.1%"}
    ]}
  ]
}
